# Laboratory results as given in patent publication US20240288446A1, “METHOD FOR DIAGNOSING FIBRINOLYTIC INSUFFICIENCY RELATED TO NEUTROPHIL EXTRACELLULAR TRAPS” (Hôpitaux Universitaires de Strasbourg, priority 2019, published 2024).
# Chains of the proteins cited; added tags and fusions are not shown.
# α1-proteinase inhibitor, P01009, UniProt P01009, whole entry, looked up: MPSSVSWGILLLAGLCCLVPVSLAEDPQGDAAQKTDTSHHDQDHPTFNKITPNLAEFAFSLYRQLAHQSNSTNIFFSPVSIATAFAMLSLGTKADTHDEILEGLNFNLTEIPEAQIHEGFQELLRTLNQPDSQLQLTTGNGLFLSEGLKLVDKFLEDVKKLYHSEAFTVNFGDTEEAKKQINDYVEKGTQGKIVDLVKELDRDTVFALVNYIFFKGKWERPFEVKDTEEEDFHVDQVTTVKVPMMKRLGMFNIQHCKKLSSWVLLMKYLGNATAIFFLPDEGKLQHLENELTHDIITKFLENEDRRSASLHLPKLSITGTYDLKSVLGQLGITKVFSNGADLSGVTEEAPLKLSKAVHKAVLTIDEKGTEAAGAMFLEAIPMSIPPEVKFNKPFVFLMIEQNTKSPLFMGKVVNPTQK
# Biological target: α1-proteinase inhibitor, P01009
protein,measurement,value
"Human neutrophil elastase (enzyme, UniProt P08246 30-247, looked up, Tested free (purified, in supernatants or in plasma) and as an HNE-DNA complex on NETs; also called HNE; leukocyte elastase) IVGGRRARPHAWPFMVSLQLRGGHFCGATLIAPNFVMSAAHCVANVNVRAVRVVLGAHNLSRREPTRQVFAVQRIFENGYDPVNLLNDIVILQLNGSATINANVQVAQLPAQGRRLGNGVQCLAMGWGLLGRNRGIASVLQELNVTVVTSLCRRSNVCTLVRGRQAGVCFGDSGSPLVCNGLIHGIASFVRGGCASGLYPDAFAPVAQFVNWIDSIIQ",activity of DNA-associated HNE (chromogenic substrate MeO-Suc-AAPV-pNA),produced only around 20% decrease in the activity of DNA-associated HNE
same,soluble HNE activity (chromogenic substrate MeO-Suc-AAPV-pNA),efficiently inhibits soluble HNE in supernatants or added to plasma
